The values below are quoted from earlier work in patent US12102684B2, “Methods of making and using polyphenols complexed with a protein, peptide, amino acid, polysaccharide, disaccharide, or monosaccharide” (priority 2016, dated 2024).

As to epigallocatechin-3-gallate [EGCG], under “ethanol”, the ethanol solubility was 20 mg/mL. In addition, the water solubility (water) was 5 mg/mL.
